Assay results reported in patent US20080227813A1, “Pharmaceutical compositions and methods for treating diseases associated with neurodegeneration” (priority 2006, published 2008).

Tested on: HSF-1, Hsp70 and Hsp90
Assay: HSF-1 activation and Hsp70/Hsp90 expression in spinal cord of mSOD1(G93A) mice
Settings: lumbar spinal cord, 120 days of age, 10 mg/kg ip daily

## [O-][n+]1cccc(/C(Cl)=N/OC[C@H](O)CN2CCCCC2)c1 [Compound I, N-[2-hydroxy-3-(1-piperidinyl)-propoxy]-pyridine-1-oxide-3-carboximidoyl chloride]
  intensity of Hsp70 and Hsp90 immunoreactivity in motor neurons: clear increase
